Assay results from US20240226357A1, “Sanitization Method for Affinity Chromatography Matrices” (priority 2015, published 2024).
Where two headings read alike, the source gives them in different places.

System: Fab
Conditions: Capto L, compared to PBS control

SMILES	Relative remaining SBC (%) (4 h incubation in SIP solution, 10' incubation with Fab sample)	Relative remaining SBC (%) (24 h incubation in SIP solution, 90' incubation with Fab sample, listed as 100 mM Peracetic acid)
CC(=O)OO [500 mM Peracetic acid, Peracetic acid]	106	
CC(=O)OO [0.1M Peracetic acid, peracetic acid]		105
